Source: PubChem
Wnt act: activates Wnt/beta-catenin signaling in a reporter cell assay; activator, plate reader; activation, % at 9.35 µM; actives 1.2% (n = 300,000); AID 743398; in the data active means activation above about 30%, passing the limit was not always enough; inconclusive means no clear call, values can overlap the other calls
miR122 inh: miR-122 inhibition in Huh7 cells; Huh7 miR-122 Renilla luciferase sensor, 48 h; neutral wells = 0, positive control = 100; activation (reporter increase), % at 12.5 µM; AID 602342; actives 0.3% (n = 340,000);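 active means mean replicate activation score at least 90 and every replicate individually at or above 90; inconclusive means only one of the two criteria met; inactive means neither criterion met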;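 further: higher luciferase means less miR-122 activity so hits act as miR-122 inhibitors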
Yeast UUG start: modulators of start codon recognition fidelity in yeast | S. cerevisiae UUG-firefly luciferase reporter, luminescence/redox ratio | activity score, % at 18.7 µM | 350,000 tested, 0.13% active;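 active = replicate mean at a twofold rise or more, about +100% in these data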;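 also: firefly luciferase made from a UUG start codon reports start codon fidelity; reporter light over untreated wells divided by growth signal over untreated wells; some hits fall short of that in this replicate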
PglD DTNB: blocks C. jejuni PglD acetyltransferase activity; purified PglD enzyme, DTNB colorimetric CoA detection; inhibition, % at 12.5 µM; actives 0.098% (n = 360,000); in the data active means inhibition above about 16%, passing the limit was not always enough; inconclusive means no clear call, values can overlap the other calls
esBAF inh: SWI/SNF esBAF complex inhibition; mouse ES cells, Bmi1-luciferase knock-in reporter, 24 h; 100% = twice the neutral-well signal; reporter increase, % at 12.5 µM; actives 2% (n = 350,000); AID 602393; in the data active means activation above about 40%; inconclusive means no clear call, values can overlap the other calls;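 further: a rise in the Bmi1 reporter signal indicates esBAF inhibition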
MITF act: MITF TRPM1 promoter activation in melanoma cells | SK-MEL-5 TRPM1-promoter luciferase, 24 h; % of positive control, neutral wells = 0 | actives 0.75% (n = 300,000) | AID 588334 | activation, % at 12.5 µM;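 active means mean activation of at least 80% with every replicate also reaching 80%; inconclusive means mean reaches 80% but some replicate falls short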
Hits are given with their value; - = inactive; ? = inconclusive; . = not tested or not shown. An excerpt weighted towards active compounds, which were near 2.8% of everything screened.

SMILES	Wnt act	miR122 inh	Yeast UUG start	PglD DTNB	esBAF inh	MITF act
COc1ccc(CNC(=O)C[C@@H]2CC[C@H]3[C@@H](COc4ccc(NC(=O)C5CC5)cc4C(=O)N3C)O2)cc1	.	-	-	-	-	.
CN1C(=O)c2cc(NC(=O)C3CCCC3)ccc2OC[C@H]2O[C@H](CC(=O)NCC(F)(F)F)CC[C@@H]21	.	-	-	-	-	.
CC(CC(=O)Nc1ccc2c(c1)OCCO2)c1ccccc1 (stereo not drawn)	55.7	-	-	-	55.1	.
O=C(Nc1ccc2c(c1)OCCO2)c1cnn(-c2ccccc2)n1	-	-	-	-	-	90.2
CC(CC(=O)Nc1ccc2c(c1)OCO2)c1ccccc1 (stereo not drawn)	-	-	-	-	-	-
CN1CCN(c2ccc(NC(=O)CSc3ccccc3)cc2F)CC1	38.2	-	-	-	-	.
O=C(CC1Nc2ccccc2NC1=O)Nc1ccc2c(c1)OCO2 (stereo not drawn)	-	-	.	.	46.7	-
C[C@@H]1CN([C@@H](C)CO)C(=O)c2cc(-c3cccnc3)cnc2O[C@@H]1CN(C)C(=O)C1CCOCC1	.	-	-	-	-	.
CC(Sc1ccccc1F)C(=O)Nc1ccc2c(c1)OCCO2 (stereo not drawn)	45.1	-	-	-	99.6	89.2
O=C(CN1C(=O)C2C3C=CC(C3)C2C1=O)Nc1ccc2c(c1)OCCO2 (stereo not drawn)	.	-	-	-	41.2	-
CN(C(=O)CSc1ccc2c(c1)OCCO2)c1ccccc1	-	-	-	-	60.5	-
O=C(CSc1ccccc1F)Nc1ccc2c(c1)OCO2	-	-	-	-	-	98.7
C[C@@H]1CN([C@H](C)CO)S(=O)(=O)c2ccc(/C=C/c3ccccc3)cc2O[C@H]1CN(C)C	.	-	-	-	-	.
O=C(CSc1ccc2c(c1)OCCO2)Nc1ccc2c(c1)OCO2	-	-	-	-	-	-
O=C(CSc1ccccc1)Nc1ccc2c(c1)OCO2	-	-	-	-	44.1	89.2
O=C(CSc1ccccc1)Nc1ccc2c(c1)OCCO2	33.3	-	-	-	54.4	-
CSc1nsc(SCC(=O)Nc2ccc3c(c2)OCCO3)n1	-	-	-	-	42.8	-
C/C(=N\OCc1ccc(C#N)cc1)c1ccccc1	-	-	.	.	.	88.3
C/C(=N\OCc1ccc(C#N)cc1)c1ccc(S(=O)(=O)N(C)C)cc1	-	.	-	-	51.2	95.6
C/C(=N/OCO/N=C(\C)c1ccccc1)c1ccccc1	-	-	-	-	.	-
COc1ccc(CN(C)C[C@@H]2Oc3ccc(NC(=O)Cc4cn(C)c5ccccc45)cc3CC(=O)N([C@H](C)CO)C[C@@H]2C)cc1	.	-	-	-	-	.
O=C(Cc1ccncc1)N[C@H]1CC[C@@H](CCn2cc(-c3ccccc3F)nn2)O[C@@H]1CO	.	-	-	-	-	.
O=C(CCNC(=O)c1ccc(Br)cc1)NC1CCCCCC1	-	-	-	-	-	-
O=C(Cc1ccc(Cl)cc1)NNC(=O)C(=O)NC1CCCCC1	-	.	-	-	-	-
O=C(CCNC(=O)c1ccc(Cl)cc1)NC1CCCCCC1	37.8	-	-	-	-	-
SMILES	Wnt act	miR122 inh	Yeast UUG start	PglD DTNB	esBAF inh	MITF act
O=C(Cc1ccc(Cl)cc1)NC1CCCCCC1	-	-	-	-	54.3	-
O=C(COC(=O)c1ccccc1F)NC1CCCC1	-	-	-	-	-	-
O=C(COC(=O)c1c(F)cccc1Cl)NC1CCCCC1	-	-	-	-	.	85.2
O=S1(=O)N=C(N2CCN(c3ccc(F)cc3)CC2)c2ccccc21	.	-	-	-	45.7	-
Fc1cccc(Nc2nc3ccccc3n3nnnc23)c1	-	-	-	-	-	-
c1ccc(Nc2nc3ccccc3n3nnnc23)cc1	-	.	-	-	74.6	-
CC(C)c1ncc(C(O)c2ccccc2)n1C (stereo not drawn)	?	-	.	.	-	.
CC(C)c1ccc(C(O)c2cnc(C(C)C)n2C)cc1 (stereo not drawn)	-	-	-	-	72.9	-
Cc1n[nH]c(=S)n1/N=C/c1ccccc1OCc1ccc(Cl)cc1	.	-	-	-	52.0	-
Cc1n[nH]c(=S)n1/N=C/c1cccc(OCc2ccccc2)c1	-	.	.	.	.	-
Clc1cccc(Cl)c1C1=NOC(c2nnc(-c3ccccc3)o2)C1 (stereo not drawn)	-	-	-	-	50.2	-
CCCCN1C(=O)/C(=C2\SC(N3CCCCC3)=NC2=O)c2ccccc21	-	-	-	-	51.4	107.2
O=C1N=C(N2CCCCC2)SC1=C1CCCC1	-	-	-	-	-	-
COCC(=O)Nc1ccc2c(c1)[C@@H]1C[C@H](CC(=O)NCc3ccccn3)O[C@H](CO)[C@@H]1O2	.	-	-	-	-	.
CCOC(=O)c1nn(-c2ccc(F)cc2)cc1O	-	-	.	.	.	92.2
CCOC(=O)c1nn(-c2ccc(Br)cc2)cc1C(=O)c1cccc2ccccc12	.	-	-	-	78.2	-
CC(=O)N(C)C[C@@H]1OCc2ccccc2-c2ccccc2C(=O)N([C@@H](C)CO)C[C@@H]1C	.	.	.	-	-	.
CCOc1ccccc1NC(=O)Cn1nnc(C(=O)NCc2ccco2)c1N	.	136.3	-	-	-	-
Cc1ccccc1NC(=O)Cn1nnc(C(=O)NCc2ccco2)c1N	-	-	.	.	-	-
CCC(=O)Nc1ccc2c(c1)C(=O)N(C)[C@H]1CC[C@@H](CC(=O)NCCc3ccccc3)O[C@@H]1CO2	.	-	-	-	-	.
CC(C)NC(=O)COc1ccc(S(=O)(=O)N(C)Cc2ccccc2)cc1	44.1	-	-	-	-	-
CN(Cc1ccccc1)S(=O)(=O)c1ccc(NC(=S)NC(=O)C2CCCCC2)cc1	-	125.0	-	-	.	-
COc1cc(S(=O)(=O)NC2CCCCC2)c(C)cc1C	-	163.1	.	.	.	-
CCOc1ccc(Cl)cc1S(=O)(=O)NC1CCCC1	-	114.1	-	-	-	-
COc1ccc(F)cc1S(=O)(=O)NC1CC(C)(C)NC(C)(C)C1	-	-	.	.	-	-
SMILES	Wnt act	miR122 inh	Yeast UUG start	PglD DTNB	esBAF inh	MITF act
COc1cc(S(=O)(=O)NC2CC(C)(C)NC(C)(C)C2)c(OC)cc1Cl	-	-	-	-	-	-
COc1ccc(S(=O)(=O)NC2CCCCCC2)c(OC)c1	-	-	-	-	-	-
COc1ccc(F)cc1S(=O)(=O)NC1CCCCCC1	.	104.7	-	-	-	-
COc1cc(S(=O)(=O)NC2CCCC2)c(OC)cc1Cl	.	293.1	-	-	-	-
CN(C)C(=O)[C@@H]1[C@@H](CO)[C@@H]2Cn3c(ccc(C4=CCCC4)c3=O)[C@H]1N2Cc1cccnc1	.	-	.	-	-	.
COc1ccc(C)cc1S(=O)(=O)NC1CCCCC1C (stereo not drawn)	.	132.5	-	-	-	-
C[C@@H]1CCCCO[C@@H](CN(C)C(=O)CCCN(C)C)[C@@H](C)CN([C@H](C)CO)C(=O)c2cc(NC(=O)Nc3ccccc3)ccc2O1	.	-	-	-	-	.
